Measurements from US20250145565A1 (BATTERJEE MEDICAL COLLEGE, priority 2021, published 2025).

Protein sequences, listed by entry. Tags and fused reporters are not part of them.
UniProt Q99685, whole entry: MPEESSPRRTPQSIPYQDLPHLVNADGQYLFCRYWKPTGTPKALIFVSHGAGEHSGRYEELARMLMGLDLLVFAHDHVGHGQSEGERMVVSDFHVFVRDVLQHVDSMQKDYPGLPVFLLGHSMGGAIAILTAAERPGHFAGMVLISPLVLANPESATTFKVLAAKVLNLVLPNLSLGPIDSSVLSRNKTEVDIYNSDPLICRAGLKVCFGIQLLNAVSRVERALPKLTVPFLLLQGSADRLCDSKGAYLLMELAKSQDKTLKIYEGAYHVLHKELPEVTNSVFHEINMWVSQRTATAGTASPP
UniProt O00519, whole entry: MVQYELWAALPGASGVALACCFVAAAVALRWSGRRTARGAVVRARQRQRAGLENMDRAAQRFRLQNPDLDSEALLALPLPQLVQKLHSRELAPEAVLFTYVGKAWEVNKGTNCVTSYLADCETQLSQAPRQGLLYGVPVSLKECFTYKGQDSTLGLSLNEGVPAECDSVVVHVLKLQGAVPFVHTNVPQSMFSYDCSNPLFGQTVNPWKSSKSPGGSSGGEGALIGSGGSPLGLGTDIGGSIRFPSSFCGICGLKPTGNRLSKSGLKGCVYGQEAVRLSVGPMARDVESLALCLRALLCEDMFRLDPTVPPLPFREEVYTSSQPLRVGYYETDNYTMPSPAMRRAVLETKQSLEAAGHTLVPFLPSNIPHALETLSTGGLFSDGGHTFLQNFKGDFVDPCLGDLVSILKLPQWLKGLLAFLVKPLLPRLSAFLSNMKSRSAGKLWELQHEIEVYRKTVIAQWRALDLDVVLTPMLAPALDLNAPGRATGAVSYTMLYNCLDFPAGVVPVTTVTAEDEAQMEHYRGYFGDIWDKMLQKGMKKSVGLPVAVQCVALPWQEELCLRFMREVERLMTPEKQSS
UniProt P00352, whole entry: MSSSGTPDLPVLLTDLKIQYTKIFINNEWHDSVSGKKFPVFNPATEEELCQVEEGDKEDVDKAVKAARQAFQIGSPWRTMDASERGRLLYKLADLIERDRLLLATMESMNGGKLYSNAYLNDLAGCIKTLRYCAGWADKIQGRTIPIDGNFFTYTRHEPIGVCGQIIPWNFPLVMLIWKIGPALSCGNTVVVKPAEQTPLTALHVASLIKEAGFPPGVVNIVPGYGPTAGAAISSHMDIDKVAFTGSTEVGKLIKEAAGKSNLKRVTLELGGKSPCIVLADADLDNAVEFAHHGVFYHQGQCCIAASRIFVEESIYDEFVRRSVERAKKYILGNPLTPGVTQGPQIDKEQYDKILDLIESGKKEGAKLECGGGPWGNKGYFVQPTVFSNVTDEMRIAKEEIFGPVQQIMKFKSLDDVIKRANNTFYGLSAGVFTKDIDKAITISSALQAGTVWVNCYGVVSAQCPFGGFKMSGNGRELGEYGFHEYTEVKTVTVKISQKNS

Experiments:
Type in all cases: biochemical
[1] = biological target: human MAGL (hMAGL) (Homo sapiens (Human), UniProt Q99685); assay: MAGL enzyme inhibition assay (4-nitrophenylacetate); conditions: relative to disulfiram / unsubstituted analog
[2] = biological target: human FAAH (hFAAH) (Homo sapiens (Human), UniProt O00519); assay: FAAH enzyme inhibition assay (Cayman kit, AMC-arachidonoyl amide)
[3] = biological target: ALDH1a1 (Homo sapiens (Human), UniProt P00352); assay: ALDH assay (diaphorase/resazurin), ALDH1a1 inhibition

Structure (SMILES) | decrease in inhibitory activity against MAGL [1] | FAAH inhibitory activity (in words) [2] | IC50 ([3]; read-out: IC50 (μM) ± SE (ALDH1a1), Table IA, mean of at least two independent experiments) [µM] | activity against ALDH1a1 (in words) [3]
CCCCN(CCCC)C(=S)SSC(=S)N(CCCC)CCCC | up to 15 fold | no inhibition | – | –
S=C(SSC(=S)N1CCCCC1)N1CCCCC1 | – | – | 0.05 | –
S=C(SSC(=S)N(Cc1ccccc1)Cc1ccccc1)N(Cc1ccccc1)Cc1ccccc1 | – | complete loss of FAAH inhibitory activity | – | complete loss of activity
